This is a sample that favours compounds with a hit; in the whole collection about 1.7% have one here.
CAL PDZ FP-1 – inhibitors of human CAL PDZ peptide binding; Q9HD26; AID 602252; inhibition, % at 24.9 µM; purified CAL PDZ, TMR-peptide fluorescence polarization, 1 h; actives 0.92% (n = 300,000);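 active = mean inhibition of at least 30% with at least half of replicates also reaching 30%; inconclusive = no clear call, values can overlap the other calls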;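 also: 0% = DMSO neutral control and 100% = excess unlabeled competitor peptide PRC23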
DYRK1A inh – Dyrk1A (rat) kinase inhibition; Q63470; ADP-Glo luminescence, NFATc1 peptide; inhibition, % at 12.5 µM; actives 0.43% (n = 310,000); in the data active = inhibition above about 50%;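 also: plate controls were vehicle with enzyme for no effect and no enzyme for full effect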
dFosB act-1 – mouse delta FosB homodimer activation. P13346. purified delta FosB, TAMRA-CDK5 oligo fluorescence polarization; percent of positive-control signal above neutral wells. activation, % at 25 µM. actives 0.99% (n = 340,000);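 active = mean activation above about 17%, with every replicate also reaching it, limit read from the data, passing the limit was not always enough; inconclusive = only one of the two conditions met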
CDK5 inh – CDK5/p35 (human) kinase inhibition; Q00535+Q15078; Recombinant CDK5/p35, ADP-Glo luminescence, 60 min; inhibition, % at 10 µM; actives 0.01% (n = 330,000); AID 488839;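 active = highest replicate inhibition of at least 50% and at least 75% of replicates reaching 50%; inconclusive = only one of the two criteria met; inactive = both criteria failed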;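 also: plate controls were DMSO neutral control for no effect and GW8510 at 10 µM for full effect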
CAL PDZ FP-2 – blocks peptide binding to human CAL PDZ domain; Q9HD26; purified CAL PDZ, TMR-peptide fluorescence polarization, 1 h; inhibition, % at 20 µM; actives 0.02% (n = 330,000);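 active = highest replicate inhibition of at least 40%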;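 also: plate controls were DMSO neutral control wells for no effect and unlabeled competitor peptide control wells for full effect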
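material = purified tagged CAL PDZ domain construct (CerCALP) | buffer or medium = sodium phosphate/NaCl buffer pH 7.4 with TCEP, IgG, Thesit | reagent = TMR-labelled reporter peptide T*-PRC34 bound in PDZ groove | incubation = 1 h room-temperature incubation prior to read | measured by = fluorescence polarization (mP) | evaluation = percent inhibition from loss of millipolarization | control set = unlabelled peptide and DMSO controls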
Yeast UUG start – modulators of start codon recognition fidelity in yeast; S. cerevisiae UUG-firefly luciferase reporter, luminescence/redox ratio; AID 602363; 350,000 tested, 0.13% active; activity score, % at 18.7 µM;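 active = replicate mean at a twofold rise or more, about +100% in these data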;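 also: firefly luciferase made from a UUG start codon reports start codon fidelity; reporter light over untreated wells divided by growth signal over untreated wells; some hits fall short of that in this replicate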
dFosB act-2 – delta FosB (mouse) homodimer activation. shares compounds with dFosB act-1. purified delta FosB, TAMRA-CDK5 oligo fluorescence polarization; normalised: neutral wells 0, positive control 100. activation, % at 24.9 µM. 2,400 tested, under 10 active. AID 588690;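 active = highest replicate activation at or above 34% and every replicate reaching that threshold; inconclusive = meets only one of the two criteria; inactive = meets neither criterion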;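 also: higher polarization means more probe DNA bound by delta FosB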
Numbers without * were called inactive; ? = inconclusive; / = not tested or not shown.

SMILES	CAL PDZ FP-1	DYRK1A inh	dFosB act-1	CDK5 inh	CAL PDZ FP-2	Yeast UUG start	dFosB act-2
COc1cc(COCC(O)CN2CCN(CCN3C(=O)c4cccc5cccc(c45)C3=O)CC2)cc(OC)c1OC (configuration not stated)	-5.4	7.2	37.1*	1.7	-2.3	/	0.8
COc1ccc(COCC(O)CN2CCC(CN3C(=O)c4cccc5cccc(c45)C3=O)CC2)cc1OC (configuration not stated)	-8.5	0.4	27.6*	-1.3	-1.8	/	5.3
O=C1c2cccc3cccc(c23)C(=O)N1CC1CCN(CC(O)COc2ccc3ccccc3c2)CC1 (configuration not stated)	-6.7	-2.1	3.8	-5.9	-2.4	-11.1	/
Cc1ccc(NC(=O)c2ccc(OC(=O)CCN3C(=O)c4ccccc4C3=O)cc2)cc1	-5.4	3.5	35.0*	-2.1	-0.6	-17.2	0.3
O=C(Nc1ccc(F)cc1)c1ccc(CSc2ccccc2)o1	0.7	-1.5	-16.3	-4.2	-0.9	/	/
NS(=O)(=O)c1ccc(NC(=O)c2ccc(CSc3ccccc3)o2)cc1	-2.9	-2.9	34.0*	-0.9	0.1	-13.1	-8.4
O=c1[nH]c(SCc2nc3c(cnn3-c3ccccc3)c(=O)[nH]2)nc2ccccc12	-5.7	-1.0	43.7*	0.7	-1.3	-3.6	4.0
Cc1noc(C)c1NC(=O)N[C@H]1C=C[C@@H](CC(=O)NCc2ccc(Cl)c(Cl)c2)O[C@@H]1CO	/	/	/	/	/	-14.6	/
Cc1nc2c(sc(=S)n2Cc2ccco2)c(=O)n1CC(=O)Nc1cc(F)ccc1F	-1.6	/	102.6*	/	-1.8	-21.7	1.9
CCn1c(=S)sc2c(=O)n(CC(=O)Nc3ccc(OC)c(Cl)c3)c(C)nc21	-2.9	-4.2	28.2*	0.0	-2.2	-5.0	3.4
CCn1c(=S)sc2c(=O)n(CC(=O)Nc3ccc(Cl)cc3)c(C)nc21	0.2	-0.8	?	-1.2	0.8	-27.2	/
C[C@H](CO)N1C[C@H](C)[C@@H](CN(C)Cc2ccc3c(c2)OCO3)Oc2c(NC(=O)Nc3ccc(C(F)(F)F)cc3)cccc2C1=O	/	/	/	/	/	24.6	/
Cc1cc(NC(=O)c2ccc3c(c2)OCCO3)ccc1NC(=O)c1cc2ccccc2o1	-1.8	-0.7	1.2	-12.8	-1.1	-22.9	/
O=C(Nc1ccc2oc(-c3ccncc3)nc2c1)c1ccc2c(c1)OCCO2	-0.4	-4.0	45.6*	0.4	-4.3	/	0.4
O=C(Nc1ccc2oc(-c3ccccc3F)nc2c1)c1ccc([N+](=O)[O-])o1	-5.3	0.3	3.4	0.2	-1.5	-18.2	/
O=C(Nc1ccc2oc(-c3ccncc3)nc2c1)c1ccc2c(c1)OCO2	-3.1	/	-6.9	0.0	-1.0	/	/
O=C(Nc1ccc2oc(-c3ccccc3F)nc2c1)c1cncc(Br)c1	-4.0	0.5	22.3*	1.8	-1.6	-11.7	1.2
O=C(Cc1ccccc1)Nc1ccc2oc(-c3cccnc3)nc2c1	-4.4	26.0	22.1*	0.1	/	-22.1	0.9
O=C(Nc1ccc(NC(=O)c2cc3ccccc3o2)cc1)c1ccc2c(c1)OCCO2	-1.6	0.9	42.5*	1.6	-3.6	/	-1.1
COCC(=O)Nc1ccc2c(c1)OC[C@H](C)N(CCC(F)(F)F)C[C@@H](C)[C@H](OC)CN(C)C2=O	/	/	/	/	/	-14.2	/
CCC(=O)Nc1ccc2c(c1)OC[C@H](C)N(Cc1cccnc1)C[C@H](C)[C@H](OC)CN(C)C2=O	/	/	/	/	/	-13.1	/
O=C(Nc1ccc2oc(-c3cccnc3)nc2c1)c1ccc2c(c1)OCCO2	-5.5	0.7	32.9*	-1.0	-2.0	/	2.0
O=C(Nc1ccc2oc(-c3ccncc3)nc2c1)c1ccc(F)cc1	-2.1	-1.5	35.5*	-0.6	-1.6	-5.1	2.8
O=C(Nc1ccc2oc(-c3ccccc3)nc2c1)c1ccc2c(c1)OCCO2	-1.4	4.8	41.6*	-2.9	-1.7	-11.2	2.9
O=C(Nc1ccc(NC(=O)c2ccco2)cc1)c1ccc2c(c1)OCO2	0.2	5.4	-5.7	-0.6	-2.3	-25.0	/
O=C(Nc1ccc2oc(-c3ccncc3)nc2c1)c1c(F)c(F)c(F)c(F)c1F	-2.3	3.1	-3.5	-0.8	0.2	-14.2	/
COc1ccc(-c2nc3cc(NC(=O)c4ccc5c(c4)OCO5)ccc3o2)cc1	-0.2	4.8	10.8	-3.7	-3.3	-16.0	/
O=C(Nc1ccc(NC(=O)c2ccco2)c(Cl)c1)c1ccc2c(c1)OCCO2	3.6	2.9	60.3*	0.9	0.3	-9.2	1.0
COc1ccc(C(=O)Nc2ccc3oc(-c4cccnc4)nc3c2)cc1OC	/	-2.0	-18.3	1.7	-4.2	/	/
O=C(NCC[C@@H]1CC[C@H](NS(=O)(=O)c2cccc(F)c2)[C@H](CO)O1)C1CC1	/	/	/	/	/	-19.3	/

Ordered by SMILES length (rising): 5 of the compounds above.
SMILES	CAL PDZ FP-1	DYRK1A inh	dFosB act-1	CDK5 inh	CAL PDZ FP-2	Yeast UUG start	dFosB act-2
O=C(Nc1ccc2oc(-c3ccncc3)nc2c1)c1ccc(F)cc1	-2.1	-1.5	35.5*	-0.6	-1.6	-5.1	2.8
COc1ccc(C(=O)Nc2ccc3oc(-c4cccnc4)nc3c2)cc1OC	/	-2.0	-18.3	1.7	-4.2	/	/
O=C(Nc1ccc2oc(-c3cccnc3)nc2c1)c1ccc2c(c1)OCCO2	-5.5	0.7	32.9*	-1.0	-2.0	/	2.0
O=C(Nc1ccc(NC(=O)c2ccco2)c(Cl)c1)c1ccc2c(c1)OCCO2	3.6	2.9	60.3*	0.9	0.3	-9.2	1.0
O=C(Nc1ccc2oc(-c3ccncc3)nc2c1)c1c(F)c(F)c(F)c(F)c1F	-2.3	3.1	-3.5	-0.8	0.2	-14.2	/

The results go on.
SMILES	CAL PDZ FP-1	DYRK1A inh	dFosB act-1	CDK5 inh	CAL PDZ FP-2	Yeast UUG start	dFosB act-2
Cc1noc(C)c1S(=O)(=O)Nc1ccc2c(c1)C(=O)N([C@H](C)CO)C[C@H](C)[C@@H](CN(C)C(=O)Nc1ccc(C(F)(F)F)cc1)OCCCC[C@H](C)O2	/	/	/	/	/	-9.2	/
Cc1cc2oc(C(=O)Nc3ccc(S(=O)(=O)Nc4nccs4)cc3)cc(=O)c2cc1Cl	6.7	5.0	37.3*	0.6	-2.3	/	0.9
Cc1cc(C)c2oc(C(=O)Nc3ccc(S(=O)(=O)Nc4nccs4)cc3)cc(=O)c2c1	-1.8	1.6	1.5	-1.6	-5.7	/	/
CCN1[C@@H]2Cn3c(ccc(-c4ccccc4OC)c3=O)[C@H]1[C@@H](C(=O)NCc1ccccn1)[C@@H]2CO	/	/	/	/	/	-13.8	/
COc1ccc(/C=C2\SC(=O)N(CCC(=O)Nc3ccc(S(=O)(=O)Nc4nccs4)cc3)C2=O)cc1	-1.6	-4.3	86.0*	0.5	-0.7	/	3.0
C[C@@H]1CN([C@H](C)CO)C(=O)Cc2cc(NC(=O)Nc3cccc4ccccc34)ccc2O[C@@H]1CN(C)S(=O)(=O)c1ccc(F)cc1	/	/	/	/	/	-8.1	/
C[C@@H]1CN([C@@H](C)CO)C(=O)Cc2cc(NC(=O)Cc3ccccc3)ccc2O[C@H]1CN(C)C(=O)Nc1ccc(F)cc1	/	/	/	/	/	-5.8	/
O=C(CSc1nnc(-c2ccco2)o1)Nc1cccc([N+](=O)[O-])c1	8.0	-7.3	40.5*	0.5	-0.2	-2.7	-11.6
O=C(COc1ccc2c(-c3ccccc3)cc(=O)oc2c1)Nc1ccc(CN2CCOCC2)cc1	-4.1	1.6	27.1*	0.4	-1.8	-34.7	1.7
Cc1c(-c2cc(Br)ccc2O)nc2cc3c(cc2c1C)OCO3	-0.2	1.6	24.4*	-0.2	-0.2	-21.1	5.1
Cc1ccc(NC(=O)c2ncn(CC(=O)NCc3nc4ccccc4[nH]3)n2)cc1C	-3.3	/	46.7*	-9.5	-0.5	3.1	-6.8
CCC(=O)NC[C@H]1[C@@H](c2ccccc2)[C@H](CO)N1C(=O)C1CCC1	/	/	/	/	/	28.4	/

Screening results (PubChem)
